In publication PMC4597100:

Key:
[1] = target: MLL4(5308–5537) SET domain construct containing the WIN motif, AviTag, biotinylated (human) (UniProt O14686)
[2] = target: MLL4(5308–5537) SET domain construct containing the WIN motif, AviTag, biotinylated (human) (UniProt O14686); assay: BLI; Octet RED; biotinylated MLL1 or MLL4 construct immobilised on streptavidin biosensors; WRAD 62.5-500 nM; room temperature; 50 mM Tris-HCl pH 7.5, 350 mM NaCl, 10% glycerol, 0.5 mM DTT, 0.05% Tween 20; association 400 s, dissociation 2000 s

kcat of H3 peptide methyltransferase activity of the MLL4-WRAD complex [1]: 0.0442 s⁻¹ | kcat of H3 peptide methyltransferase activity with equimolar WRAD, against the intrinsic activity without WRAD [1]: 4 fold | Kd [2]: 25 nM
Substance: WRAD complex (WDR5, RbBP5, Ash2L, and Dpy-30) (from UniProt P61965 1-334; Q8BX09 1-538; Q91X20 1-623; Q99LT0 1-99)
